Among the data in PubChem BioAssay AID2472 (National Center for Advancing Translational Sciences (NCATS), 2010) are activity change, negative = inhibition values, retold here.

The entries are a selection whose mix differs from that of the whole data set. Calls of active or inactive are those of the source. Cut-off read from the data, not from the text of the source: active = activity change below about -30%; inactive = the rest, inconclusive results apart.
% is set by controls: 0 for no effect and ±100 for the full control effect.

The nature of the experiment: qHTS Assay for Inhibitors of Fructose-1,6-bisphosphate Aldolase from Giardia Lamblia: Coupling assay counterscreen. The settings on record: coupling enzyme system counterscreen, AmpLite Red fluorescence; at 58.2 µM (top of the series). An excerpt:
MLPCN Grant: MH085699-01 Assay Provider: Osnat Herzberg, University of Maryland NCGC Assay Overview: The objective of this project is to obtain compounds that inhibit Giardia lamblia growth. G. lamblia is a human pathogen which afflicts impoverished nations; it is the most common cause of outbreaks of diarrhea in the United States. During the course of our study of potential drug targets in Giardia, we have identified the Class II (Zn2+ functions in electrophilic catalysis) fructose-1,6-bisphosphate aldolase (FBPA) as an excellent candidate for drug targeting. FBPA is a key glycolytic pathway enzyme, essential for G. lamblia survival. The human FBPA belongs to the Class I aldolases, which have a different substrate binding site structure and a radically different catalytic mechanism (employing a lysine-Schiff base intermediate). Therefore, affinity-based or mechanism-based inhibitors of the Giardia FBPA are expected not to interfere with the catalytic function of the human FBPA. […] This was done by coupling it to a diaphorase/resazurin/resorufin reaction that can be monitored by fluorescence (excitation, 544 nm; emission, 590 nm). Compounds identified in this screen will be further evaluated by coupling the […]/triose phosphate isomerase/NADH assay to a phenazine methosulfate/tetranitroblue tetrazolium color reaction. […]
For `CN(CCCl)CCCl`, the activity change, negative = inhibition is inactive: -1.3%.
